Measurements: paper PMC12072147, “Antioxidant and Neuroprotective Properties of Selected Pyrrole-Containing Azomethine Compounds in Neurotoxicity Models In Vitro” (International Journal of Molecular Sciences, 2025)

Test system: isolated brain mitochondria
Experiment: t-BuOOH-induced oxidative stress in brain mitochondria
Details: 75 µM alone, vs control untreated mitochondria

Which “increase in MDA production by toxic agent alone” value does the source give for CC(C)(C)OO here?
Its value is 209%.

And the “reduction in GSH levels by toxic agent alone” value?
Its value is 50%.
